Test results reported in paper PMC12143348, “Rapid and reversible fluorescent probe enables repeated snapshot imaging of AMPA receptors during synaptic plasticity” (Science Advances, 2025).

Protein sequences, listed by entry. Tags and fused reporters are not part of them. Chains listed by the source or under a name are the forms on record and can include a tag or linker. Residues count along the entry.
UniProt P23819, with tags, fused parts or gaps isoform 4 DEL765-802 limits assumed: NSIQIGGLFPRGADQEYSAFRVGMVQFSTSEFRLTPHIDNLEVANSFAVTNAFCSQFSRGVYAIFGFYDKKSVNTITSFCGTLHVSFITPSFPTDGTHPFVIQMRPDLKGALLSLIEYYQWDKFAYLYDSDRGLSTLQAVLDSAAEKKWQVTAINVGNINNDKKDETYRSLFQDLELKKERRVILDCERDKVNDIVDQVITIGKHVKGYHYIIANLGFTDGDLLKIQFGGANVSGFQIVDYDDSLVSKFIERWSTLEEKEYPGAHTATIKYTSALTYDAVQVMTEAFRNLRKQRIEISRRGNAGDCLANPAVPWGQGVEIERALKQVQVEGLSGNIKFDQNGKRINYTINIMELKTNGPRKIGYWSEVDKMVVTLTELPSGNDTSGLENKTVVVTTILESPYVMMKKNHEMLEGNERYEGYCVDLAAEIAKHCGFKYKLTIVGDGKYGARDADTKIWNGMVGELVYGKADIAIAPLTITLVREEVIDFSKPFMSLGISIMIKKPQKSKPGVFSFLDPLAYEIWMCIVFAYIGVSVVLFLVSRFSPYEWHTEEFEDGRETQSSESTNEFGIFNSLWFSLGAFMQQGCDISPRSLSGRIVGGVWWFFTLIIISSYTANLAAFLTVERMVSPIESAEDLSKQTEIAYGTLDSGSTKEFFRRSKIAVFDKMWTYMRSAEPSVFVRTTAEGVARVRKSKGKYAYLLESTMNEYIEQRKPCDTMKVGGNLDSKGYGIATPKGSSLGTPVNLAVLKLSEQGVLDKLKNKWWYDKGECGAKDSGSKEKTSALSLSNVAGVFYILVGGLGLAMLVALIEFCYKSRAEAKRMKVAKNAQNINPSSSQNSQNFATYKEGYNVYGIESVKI
UniProt P42260, 32-908 limits assumed: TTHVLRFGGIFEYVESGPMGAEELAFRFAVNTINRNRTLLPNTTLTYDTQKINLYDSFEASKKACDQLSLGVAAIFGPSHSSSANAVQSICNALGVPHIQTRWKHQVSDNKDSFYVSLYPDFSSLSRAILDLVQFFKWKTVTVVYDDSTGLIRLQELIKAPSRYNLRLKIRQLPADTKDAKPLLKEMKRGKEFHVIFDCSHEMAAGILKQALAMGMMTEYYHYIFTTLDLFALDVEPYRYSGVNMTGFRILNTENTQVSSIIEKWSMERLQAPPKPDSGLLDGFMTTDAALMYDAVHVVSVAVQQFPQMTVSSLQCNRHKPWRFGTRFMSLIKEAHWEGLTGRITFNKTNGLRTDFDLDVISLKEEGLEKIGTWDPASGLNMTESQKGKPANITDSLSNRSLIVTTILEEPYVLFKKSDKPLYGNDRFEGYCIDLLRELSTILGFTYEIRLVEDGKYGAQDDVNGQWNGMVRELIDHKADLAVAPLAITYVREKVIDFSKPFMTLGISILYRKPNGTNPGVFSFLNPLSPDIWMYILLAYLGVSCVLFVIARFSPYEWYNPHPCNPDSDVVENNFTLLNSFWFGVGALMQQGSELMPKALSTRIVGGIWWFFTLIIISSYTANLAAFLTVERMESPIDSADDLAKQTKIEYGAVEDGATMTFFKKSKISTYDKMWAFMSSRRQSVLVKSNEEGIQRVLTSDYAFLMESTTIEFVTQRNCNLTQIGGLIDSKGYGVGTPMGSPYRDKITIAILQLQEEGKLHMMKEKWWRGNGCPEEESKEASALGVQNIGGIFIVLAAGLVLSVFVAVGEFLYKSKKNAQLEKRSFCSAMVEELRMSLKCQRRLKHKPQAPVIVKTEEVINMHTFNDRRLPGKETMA

Key:
GluA2flip(Q) [1] = molecular target: T1, GluA2flip(Q) (Mus musculus, UniProt P23819, DEL765-802); test: Concentration-dependent binding of fluorophore-ligand conjugates, confocal live imaging of HEK293T cells expressing GluA2; settings: for Kd: read-out: dissociation constant (Kd) / Affinity to GluA2, HEK293T cells expressing GluA2flip(Q), cell-surface fluorescence, mean ± SEM, n = 3
GluA2flip(Q) [2] = molecular target: T1, GluA2flip(Q); test: Competitive inhibition of PFQX1(AF488) binding by PFQX-amine in HEK293T cells expressing GluA2; settings: [PFQX1(AF488)] = 30 nM, HEK293T cells with GluA2
GluK2(Q) = GluK2(Q) (Rattus norvegicus, UniProt P42260); test: Fluorescence Ca2+ assay, inhibition of kainic acid-induced response in HEK293T cells transfected with GluK2(Q); settings: 100 µM kainic acid-induced Ca2+ response

Kd (GluA2flip(Q) [1]) | IC50 (GluA2flip(Q) [2]; read-out: IC50 for inhibition of PFQX1(AF488) binding, n = 3) | Ki (GluA2flip(Q) [2]; read-out: Ki (Cheng-Prusoff equation), calculated from IC50) | inhibitory effect on GluK2 (GluK2(Q)) | cell-surface fluorescence / affinity to AMPARs (in words) (GluA2flip(Q) [1]; HEK293T cells expressing GluA2) | Structure (SMILES)
346 nM | – | – | – | – | O=C(O)Cn1c(=O)c(=O)[nH]c2cc(C(F)(F)F)c(-n3ccc(CNC(=O)CCOCCOCCOCCOCCNC(=O)c4ccc(-c5c6ccc(=O)cc-6oc6cc(O)ccc56)c(C(=O)O)c4)c3)cc21
– | 862 nM | 477 nM | low | – | NCc1ccn(-c2cc3c(cc2C(F)(F)F)[nH]c(=O)c(=O)n3CC(=O)O)c1
4.3 nM | – | – | – | high affinity | O=C(O)Cn1c(=O)c(=O)[nH]c2cc(C(F)(F)F)c(-n3ccc(CNC(=O)c4ccc(-c5c6ccc(=O)cc-6oc6cc(O)ccc56)c(C(=O)O)c4)c3)cc21
